Laboratory results taken from publication PMC10699647 (PLOS Biology, 2023).

Tests used:
CMKLR1 Y276^6.51A = assay: Ca^2+ flux assay, CMKLR1 variant Y276^6.51A; format: cell-based, human; conditions: poor cell surface expression of the variant
CMKLR1 R178^4.64A = assay: Ca^2+ flux assay, CMKLR1 variant R178^4.64A; format: cell-based, human
CMKLR1 R178^4.64K = assay: Ca^2+ flux assay, CMKLR1 variant R178^4.64K; format: cell-based, human
CMKLR1 R178^4.64Q = assay: Ca^2+ flux assay, CMKLR1 variant R178^4.64Q; format: cell-based, human
CMKLR1 R224^5.42A = assay: Ca^2+ flux assay, CMKLR1 variant R224^5.42A; format: cell-based, human
CMKLR1 R224^5.42Q = assay: Ca^2+ flux assay, CMKLR1 variant R224^5.42Q; format: cell-based, human
[1] = molecular target: T1, wild-type human CMKLR1 (chemokine-like receptor 1), cryo-EM construct with the N-terminal peptide of the … (Homo sapiens (Human), UniProt P07550); assay: cryo-EM, co-purification/SEC; chemerin9 agonist; Gβ1γ2 and scFv16 present; apyrase (nucleotide-free); dominant-negative Gαi1 (S47N, G203A, E245A, A326S); co-expressed and purified as a complex in LMNG/CHS
T1 chain: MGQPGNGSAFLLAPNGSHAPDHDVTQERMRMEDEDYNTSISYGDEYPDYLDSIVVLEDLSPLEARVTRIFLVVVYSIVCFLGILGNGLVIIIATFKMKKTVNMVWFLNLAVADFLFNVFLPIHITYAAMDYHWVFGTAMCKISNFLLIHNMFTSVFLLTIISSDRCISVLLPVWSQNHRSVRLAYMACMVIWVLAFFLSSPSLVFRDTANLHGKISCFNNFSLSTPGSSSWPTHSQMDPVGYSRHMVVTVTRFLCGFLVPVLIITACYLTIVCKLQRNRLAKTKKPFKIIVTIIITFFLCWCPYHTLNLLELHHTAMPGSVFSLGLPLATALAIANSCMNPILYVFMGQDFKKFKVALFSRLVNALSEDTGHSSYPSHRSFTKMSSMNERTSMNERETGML

[2] = system: primary human macrophages; assay: Macrophage differentiation assay, surface markers by flow cytometry (MFI fold-change); conditions: 72 hours; for CD86 MFI fold-change / CD163 MFI fold-change / CD206 MFI fold-change / HLA.DR MFI fold-change: normalized to M0 (medium), 10 ng/ml (each)

YFPGQFAAS [[A8]-C9]
activity in words (CMKLR1 Y276^6.51A): None of the mutations of H95^2.60 or Y276^6.51 rescued the activity

YFPGQFAFS-NH2 [C9-NH2, carboxylate group of Ser157 changed to carboxamide]
signaling activity in words (CMKLR1 R178^4.64A): no activity | signaling activity in words (CMKLR1 R178^4.64K): no activity | signaling activity in words (CMKLR1 R178^4.64Q): no activity | signaling activity in words (CMKLR1 R224^5.42A): partially rescued the loss of activity | signaling activity in words (CMKLR1 R224^5.42Q): partially rescued the loss of activity

B1: dominant negative form of human Gαi1 (DNGαi1) (protein)
chain: TLSAEDKAAVERSKMIDRNLREDGEKAAREVKLLLLGAGESGKNTIVKQMKIIHEAGYSEEECKQYKAVVYSNTIQSIIAIIRAMGRLKIDFGDSARADDARQLFVLAGAAEEGFMTAELAGVIKRLWKDSGVQACFNRSREYQLNDSAAYYLNDLDRIAQPNYIPTQQDVLRTRVKTTGIVETHFTFKDLHFKMFDVGAQRSERKKWIHCFEGVTAIIFCVALSDYDLVLAEDEEMNRMHASMKLFDSICNNKWFTDTSIILFLNKKDLFEEKIKKSPLTICYPEYAGSNTYEEAAAYIQCQFEDLNKRKDTKEIYTHFTCSTDTKNVQFVFDAVTDVIIKNNLKDCGLF
binding result [1]: binds

B2: IL-10: 10 ng/ml IL-10 supplement used as M2 reference (protein, UniProt P22301 19-178, looked up)
Interleukin-10: SPGQGTQSENSCTHFPGNLPNMLRDLRDAFSRVKTFFQMKDQLDNLLLKESLLEDFKGYLGCQALSEMIQFYLEEVMPQAENQDPDIKAHVNSLGENLKTLRLRLRRCHRFLPCENKSKAVEQVKNAFNKLQEKGIYKAMSEFDIFINYIEAYMTMKIRN
CD86 MFI fold-change ([2]; replicate (donor) column 1): 0.9059 | CD163 MFI fold-change ([2]; replicate (donor) column 1): 1.001 | CD206 MFI fold-change ([2]; replicate (donor) column 1): 1.0748 | HLA.DR MFI fold-change ([2]; replicate (donor) column 1): 0.735 | CD86 MFI fold-change ([2]; replicate (donor) column 2): 0.8124 | CD163 MFI fold-change ([2]; replicate (donor) column 2): 2.034 | CD206 MFI fold-change ([2]; replicate (donor) column 2): 1.264 | HLA.DR MFI fold-change ([2]; replicate (donor) column 2): 0.8861 | CD86 MFI fold-change ([2]; replicate (donor) column 3): 0.8979 | CD163 MFI fold-change ([2]; replicate (donor) column 3): 0.4674 | CD206 MFI fold-change ([2]; replicate (donor) column 3): 1.211 | HLA.DR MFI fold-change ([2]; replicate (donor) column 3): 0.4678 | CD86 MFI fold-change ([2]; replicate (donor) column 4): 0.8073 | CD163 MFI fold-change ([2]; replicate (donor) column 4): 1.009 | CD206 MFI fold-change ([2]; replicate (donor) column 4): 0.934 | HLA.DR MFI fold-change ([2]; replicate (donor) column 4): 0.5752 | HLA-DR expression in words ([2]; primary human macrophages, 10 ng/mL (each), vs M0, n = 4 donors): down-regulation
